Assay: Measurement of crystal form stability (HPLC chemical purity, XRPD)
Format: physicochemical
Conditions: placement time 10 days
Description: The X-ray powder diffraction pattern detection equipment and method of the present invention are as shown in the X-ray powder diffraction table in the instrument and analysis method. After the test compounds are placed under different temperature, humidity and light conditions for a period of time, the purity is tested. Purity testing method: Use high-performance liquid chromatography (HPLC) to detect the chemical purity of this product. Determine according to high performance liquid chromatography (“Chinese Pharmacopoeia” 2020 edition, Part IV, General Chapter 0512). Use octadecylsilane bonded silica gel as the filler (Waters XBridge Shield RP18 (4.6×250 mm, 5 μm)), 0.1% triethanolamine, 0.01 mol/L potassium dihydrogen phosphate solution (use phosphoric acid to adjust the pH value to 2.8) is mobile phase A, and acetonitrile is mobile phase B. The detection wavelength is 220 nm, the flow rate is 1.0 mL/min, and the column temperature is 35° C. The detection results are detailed in Table 29. XRPD characterization was performed on the samples after being placed under different temperature, humidity and light conditions for a period of time. The XRPD detection spectrum (in addition to the compounds in Table 28, the test substances also include the crystal form of the compound shown in Formula I) is basically the same.

- Chemical purity (%) 60° C.: 98.61%
SMILES: COc1cc(N2CCC(N3CCN(C)CC3)CC2)c(C)cc1Nc1ncc(Br)c(Nc2ccc3nc(C4CC4)ccc3c2P(C)(C)=O)n1.O=C(O)C[C@H](O)C(=O)O [Crystal form J of the compound represented by formula III]

From patent US20240352053A1, “SALT AND CRYSTAL FORM OF EGFR INHIBITOR, AND COMPOSITION AND USE THEREOF” (BETTA PHARMACEUTICALS CO., LTD, priority 2021, published 2024)
